The data set deals with the molecule itself. Description: SEC + other: glycerol gradient sedimentation; hydrodynamic analysis of KIF1C-Flag in human cell lysate at 150 mM NaCl; fractions immunoblotted with anti-KIF1C; apparent MW.

B1: KIF1C-Flag (KIF1C-2xFlag) (natural protein, human, UniProt O43896 1-1103, looked up)
chain: MAGASVKVAVRVRPFNARETSQDAKCVVSMQGNTTSIINPKQSKDAPKSFTFDYSYWSHTSTEDPQFASQQQVYRDIGEEMLLHAFEGYNVCIFAYGQTGAGKSYTMMGRQEPGQQGIVPQLCEDLFSRVSENQSAQLSYSVEVSYMEIYCERVRDLLNPKSRGSLRVREHPILGPYVQDLSKLAVTSYADIADLMDCGNKARTVAATNMNETSSRSHAVFTIVFTQRCHDQLTGLDSEKVSKISLVDLAGSERADSSGARGMRLKEGANINKSLTTLGKVISALADMQSKKRKSDFIPYRDSVLTWLLKENLGGNSRTAMIAALSPADINYEETLSTLRYADRTKQIRCNAIINEDPNARLIRELQEEVARLRELLMAQGLSASALEGLKTEEGSVRGALPAVSSPPAPVSPSSPTTHNGELEPSFSPNTESQIGPEEAMERLQETEKIIAELNETWEEKLRKTEALRMEREALLAEMGVAVREDGGTVGVFSPKKTPHLVNLNEDPLMSECLLYHIKDGVTRVGQVDMDIKLTGQFIREQHCLFRSIPQPDGEVVVTLEPCEGAETYVNGKLVTEPLVLKSGNRIVMGKNHVFRFNHPEQARLERERGVPPPPGPPSEPVDWNFAQKELLEQQGIDIKLEMEKRLQDLENQYRKEKEEADLLLEQQRLYADSDSGDDSDKRSCEESWRLISSLREQLPPTTVQTIVKRCGLPSSGKRRAPRRVYQIPQRRRLQGKDPRWATMADLKMQAVKEICYEVALADFRHGRAEIEALAALKMRELCRTYGKPDGPGDAWRAVARDVWDTVGEEEGGGAGSGGGSEEGARGAEVEDLRAHIDKLTGILQEVKLQNSSKDRELQALRDRMLRMERVIPLAQDHEDENEEGGEVPWAPPEGSEAAEEAAPSDRMPSARPPSPPLSSWERVSRLMEEDPAFRRGRLRWLKQEQLRLQGLQGSGGRGGGLRRPPARFVPPHDCKLRFPFKSNPQHRESWPGMGSGEAPTPLQPPEEVTPHPATPARRPPSPRRSHHPRRNSLDGGGRSRGAGSAQPEPQHFQPKKHNSYPQPPQPYPAQRPPGPRYPPYTTPPRMRRQRSAPDLKESGAAV
notes: KIF1C, human, full length; also called pKIF1C-2xFlag; pKIF1C^RIP1-2Flag; source: human cell lysate (hydrodynamic analysis); HEK293, transfected, in lysate (co-IP)
B1: the stoichiometry N (commonly a count of units in the complex or per binding partner) turned out to be 2.

Values taken from paper PMC6584639 (Nature Communications, 2019).
